# Values of other authors as cited in patent publication US8853224B2 (priority 2006, dated 2014).
# Protein sequences, listed by entry. Tags and fused reporters are not part of them. Lines headed by an entry give the natural chain unless they say otherwise; changes in a name come on top.
# UniProt P00491: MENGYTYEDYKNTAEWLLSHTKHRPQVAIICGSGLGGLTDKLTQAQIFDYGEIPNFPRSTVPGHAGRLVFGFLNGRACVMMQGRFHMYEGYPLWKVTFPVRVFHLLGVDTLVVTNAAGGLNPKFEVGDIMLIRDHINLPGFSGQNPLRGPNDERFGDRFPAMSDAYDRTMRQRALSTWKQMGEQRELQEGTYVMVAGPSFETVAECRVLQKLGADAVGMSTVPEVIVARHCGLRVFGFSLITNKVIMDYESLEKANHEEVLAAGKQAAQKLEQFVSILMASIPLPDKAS
# Target: human purine nucleoside phosphorylase (HsPNP) (Homo sapiens (Human), UniProt P00491)
# Conditions: cited from earlier work
row,Substance,Kd values for binding to HsPNP
1,DADMe-Immucillin-H,picomolar range
2,Immucillin-H,picomolar range
